Laboratory results from patent US8987312B2, “Alpha-keto heterocycles as FAAH inhibitors” (The Scripps Research Institute, priority 2008, dated 2015).
Like-named read-outs stand apart in the source and are kept apart here.

The chains behind the UniProt entries cited, without tags or fusion partners. Residues count along the entry.
UniProt P97612, 30-579 limits assumed: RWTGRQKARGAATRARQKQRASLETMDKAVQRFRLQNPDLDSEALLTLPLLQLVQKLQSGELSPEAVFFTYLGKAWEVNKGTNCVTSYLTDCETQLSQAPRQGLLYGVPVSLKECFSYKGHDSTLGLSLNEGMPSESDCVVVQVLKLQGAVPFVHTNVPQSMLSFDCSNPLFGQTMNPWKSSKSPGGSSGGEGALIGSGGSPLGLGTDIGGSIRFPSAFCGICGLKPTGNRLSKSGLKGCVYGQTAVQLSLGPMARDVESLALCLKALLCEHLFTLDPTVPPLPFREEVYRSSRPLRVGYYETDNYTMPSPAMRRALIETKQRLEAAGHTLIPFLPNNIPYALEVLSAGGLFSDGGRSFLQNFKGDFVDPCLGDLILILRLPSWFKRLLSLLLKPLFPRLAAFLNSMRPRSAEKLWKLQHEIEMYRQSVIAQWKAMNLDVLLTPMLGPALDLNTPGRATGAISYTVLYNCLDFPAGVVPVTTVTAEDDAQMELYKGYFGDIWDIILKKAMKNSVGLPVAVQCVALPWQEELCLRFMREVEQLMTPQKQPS

Target: T1, purified recombinant rat FAAH (Rattus norvegicus, UniProt P97612)
T1 construct: The truncated rat FAAH (rFAAH) was expressed in E. coli and purified as described; made in house; host or cells: Escherichia coli
Test: FAAH inhibition enzyme assay (14C-oleamide hydrolysis, Dixon plot), rat enzyme
Assay type: biochemical

[1] = Table 2, rat FAAH, pH 9 assay conditions, read-out: Ki
[2] = Table 3, rat FAAH, read-out: Ki, μM (rat)

| SMILES | Ki [1] | Ki (Table 4, read-out: FAAH Ki) | Ki [2] | Ki (rat FAAH, pH 9, read-out: Ki) |
| --- | --- | --- | --- | --- |
| O=C(CCCCCCc1ccccc1)c1ncc(-c2ccccc2)o1 [7e] | 0.08 µM | 0.08 µM |  |  |
| O=C(CCCCCCc1ccccc1)c1nnn(-c2ccccn2)n1 [15b, 7-Phenyl-1-(2-(pyridin-2-yl)-2H-tetrazol-5-yl)-heptan-1-one] | 0.0011 µM | 0.0011 µM | 0.0011 µM |  |
| COC(=O)c1nnc(C(=O)CCCCCCc2ccccc2)o1 [8h, Methyl 5-(7-Phenylheptanoyl)-1,3,4-oxadiazole-2-carboxylate] |  | 0.001 µM |  | < 0.01 µM |
| O=C(O)c1cccc(-c2cnc(C(=O)CCCCCCc3ccccc3)s2)n1 [11g, 6-(2-(7-Phenylheptanoyl)thiazol-5-yl)-picolinic Acid] | 10 µM | 10 µM |  |  |
| O=C(O)c1cccc(-c2ccc(C(=O)CCCCCCc3ccccc3)nn2)n1 [13g, 6-(6-(7-Phenylheptanoyl)-pyridazin-3-yl)-picolinic Acid] | 0.36 µM | 0.36 µM |  |  |
| COC(=O)c1cccc(-c2nnc(C(=O)CCCCCCc3ccccc3)s2)n1 [12f, Methyl 6-(5-(7-Phenylheptanoyl)-1,3,4-thiadiazol-2-yl)-picolinate] | 0.0077 µM | 0.0077 µM |  |  |
| O=C(CCCCCCc1ccccc1)c1ncc(-c2ccccn2)s1 [11b, 7-Phenyl-1-(5-(pyridin-2-yl)-thiazol-2-yl)-heptan-1-one] | 0.024 µM | 0.024 µM |  |  |
| O=C(O)c1cccc(-c2nnc(C(=O)CCCCCCc3ccccc3)o2)n1 [8g] | 0.014 µM | 0.014 µM | 0.014 µM |  |

Results, then the compound that gave them:

| Ki [1] | Ki (Table 4, read-out: FAAH Ki) | Ki [2] | Ki (rat FAAH, pH 9, read-out: Ki) | SMILES |
| --- | --- | --- | --- | --- |
| 0.007 µM | 0.007 µM |  |  | COC(=O)c1cccc(-c2nc(C(=O)CCCCCCc3ccccc3)no2)n1 [10f, Methyl 6-(3-(7-Phenylheptanoyl)-1,2,4-oxadiazol-5-yl)-picolinate] |
| 0.05 µM |  |  |  | O=C(O)c1cccc(-c2nnc(C(=O)CCCCCCc3ccccc3)s2)n1 [12g, 6-(5-(7-Phenylheptanoyl)-1,3,4-thiadiazol-2-yl)-picolinic Acid] |
| 0.025 µM | 0.025 µM |  |  | O=C(CCCCCCc1ccccc1)c1ccc(-c2ccccn2)nn1 [13b, 7-Phenyl-1-(6-(pyridin-2-yl)-pyridazin-3-yl)-heptan-1-one] |
|  | 0.001 µM |  | < 0.01 µM | COC(=O)c1nnc(C(=O)CCCCCCc2ccccc2)s1 [12h, Methyl 5-(7-Phenylheptanoyl)-1,3,4-thiadiazole-2-carboxylate] |
| 0.013 µM | 0.013 µM |  |  | O=C(O)c1cccc(-c2noc(C(=O)CCCCCCc3ccccc3)n2)n1 [9g, 6-(5-(7-Phenylheptanoyl)-1,2,4-oxadiazol-3-yl)-picolinic Acid] |
